Where two headings read alike, the source gives them in different places.

Series [1] in a line: Exposed Polar Surface Area (EPSA). The series is classed as physicochemical. The conditions noted are these: SFC on Chirex 3014 column; sample 1 mM DMSO stock. An excerpt:
Exposed Polar Surface Area (EPSA) is an experimental descriptor of molecular polarity obtained from chromatographic retention in supercritical fluid chromatography (SFC).
The stationary phase (Chirex 3014(S)-valine and (R)-1-(alpha-naphthyl) ethylamine) was selected for its balance of lipophilic and polar attributes and its capacity to separate compounds with wide polarity differences. The mobile phase consists of methanol (+Ammonium formate) and CO2. Polar compounds are retained stronger under these conditions and a low-slope gradient of methanol achieves elution based on increasing polarity of the mobile phase. Results are normalized using calibration standards generating a linear relationship between retention times and EPSA values. The unit of EPSA is Å^2.
Along with the measurement of compounds of interest, a series of 8 calibration standards (see Materials) are analyzed generating a linear relationship between retention times and EPSA value. The 8 compounds used as calibration standard have their own EPSA value defined by G. Goetz based on the comparison with TPSA (see G. Goetz, L. Philippe and M. Shapiro, “EPSA: A novel supercritical fluid chromatography technique enabling the design of permeable cyclic peptides,” ACS Med. Chem. Lett., vol. 5, pp. 1167-1172, 2014 for more information). The slope from the linear relationship between EPSA values of these eight compounds and their retention times is used to determine the EPSA value of each compound of interest that's measured under the same condition using the equation as below: […]
The mixture of calibrations standard is reinjected every 20 compounds to validate the stability of the retention time.
The mobile phase modifier consists of ammonium formate LC_MS grade (>99%) (CAS number 540-69-2) diluted to 20 mM in HPLC grade Methanol (MeOH, CAS number 67-56-1) and liquid C02 SFC grade (CAS number 124-38-9).
Antipyrine (CAS number: 60-80-0) Chlorpromazine hydrochloride (CAS number: 69-09-0), desipramine hydrochloride (CAS number: […]), pindolol (CAS Number: 13523-86-9), diclofenac (CAS number: 15307-79-6)), m-nitro benzoic acid (CAS number: 121-92-6), bumetanide (CAS number: 28395-03-1), furosemide (CAS number: 54-31-9) were purchased from Sigma Aldrich (Steihneim, Germany).
All analyses were performed on a ultra performance convergence chromatography (UPC™) apparatus (Waters, Milford, MA, USA) equipped with a sample manager, a binary solvent delivery pump (BSM), a column manager, a convergence manager (automated back pressure regulator), a photo diode array detector (DAD) with a high pressure flow cell, and a mass detector simple quadrupole QDa. After the UV detector, the effluent of the SFC was mixed with an eluent consist of mixture MeOH/water (+0.3% Ammonia) 95/5 delivered by a make up pump with a flow rate of 0.4 mL/min and then split to the QDa using a splitter. The instrument was controlled, and data were processed with Masslynx 4.1.
The Analyses were performed using a 4.6×50 mm Chirex 3014(S)-valine and (R)-1-(alpha- naphthyl) ethylamine column (Phenomenex, Le Pecq, France) with 5 um particle and 100A pore size. The flow rate was 4 mL/min with the outlet pressure set to 14 MPa. The injection volume was 2 μL. the mobile phase composition was varied from 5% to 60% modifier at 20%/ min in a linear gradient, holding at 60% for 1.45 min and reverting to the original 5% until the end of the run. Data are acquired during 5 min. An equilibration time of 1 min is applied between 2 injections resulting in an injection every 6 min. each sample is analyzed in duplicate, resulting in a sample to sample turnaround time of 12 min.
The column temperature was set to 35° C. The mass detector was used in full scan from 100 to 800 for small molecules and from 500 to 1200 for peptides.
Each sample is delivered by compound logistics from DMSO stock solution without dilution. The concentration is 1 mM and the volume is 60 μL.

The next series has as its target T1, IL-23R (Homo sapiens, UniProt Q5VWK5).
T1 construct: host or cells: HEK293
T1 sequence (Q5VWK5 24-629): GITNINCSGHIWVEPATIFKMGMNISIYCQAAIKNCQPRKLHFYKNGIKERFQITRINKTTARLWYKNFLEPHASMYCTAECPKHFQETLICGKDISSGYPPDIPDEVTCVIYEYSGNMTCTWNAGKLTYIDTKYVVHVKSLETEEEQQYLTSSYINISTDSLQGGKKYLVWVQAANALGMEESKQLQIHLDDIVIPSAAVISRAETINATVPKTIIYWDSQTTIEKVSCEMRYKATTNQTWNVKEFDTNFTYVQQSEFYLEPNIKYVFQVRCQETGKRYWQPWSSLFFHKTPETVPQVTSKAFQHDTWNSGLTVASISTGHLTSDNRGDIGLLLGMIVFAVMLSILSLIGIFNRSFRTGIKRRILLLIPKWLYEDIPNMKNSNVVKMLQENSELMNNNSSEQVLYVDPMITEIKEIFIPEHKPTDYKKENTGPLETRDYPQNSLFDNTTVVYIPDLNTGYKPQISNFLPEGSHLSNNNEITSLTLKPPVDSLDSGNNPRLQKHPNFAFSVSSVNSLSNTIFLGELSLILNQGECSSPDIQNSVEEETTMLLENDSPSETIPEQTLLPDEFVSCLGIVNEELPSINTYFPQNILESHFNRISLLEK
Nature of the series: IL23R Reporter Assay. The series is classed as cell-based. The conditions noted are these: HEK293 cells containing IL-23R, IL-12RP1 and STAT-inducible firefly luciferase reporter, 10 ng/mL IL-23 (EC90), 5 h at 37° C. Background: A reporter such as luciferase makes a cellular process visible.

[2] abbreviates: read-out: IL23R Reporter Assay (micromolar).

In series [1], “cPEG3aCO-Pen(3)-N(N(Me)2)-t-7MeW-Dab(NMeAc)-Pen(3)-AEF-2Nal-THP-Dab(NMeAc)-N-3Pya-Sar-CONH(PEG3a) [compound 191]” gave an EPSA of 143.97 Å^2. Moreover, the IC50 on IL-23R (setting [2]) turned out to be 0.0025 µM.
As to “cPEG3aCO-Pen(3)-n-T-7MeW-K(NMeAc)-Pen(3)-TMAPF-2Nal-THP-K(NMeAc)-N-3Pya-Sar-CON(Me)2 [compound 299]”, the EPSA in series [1] was determined as 157.14 Å^2. Besides, the IC50 at IL-23R (setting [2]) amounted to 0.0019 µM.
On the same counts, the results for “cPEG3aCO-Pen(3)-n-T-7MeW-K(NMeAc)-Pen(3)-APEG3F-2Nal-THP-K(NMeAc)-N-3Pya-Sar-CON(Me)2 [compound 240]” are 143.71 Å^2 and 0.003 µM.
On the same counts, the results for “cPEG3aCO-Pen(3)-N-t-7MeW-Dab(NMeAc)-Pen(3)-TMAPF-2Nal-THP-K(NMeAC)-N-3Pya-Sar-CON(Me)2 [compound 311]” are 156.23 Å^2 and 0.0013 µM.
For “cPEG3aCO-Pen(3)-n-T-7MeW-K(NMeAc)-Pen(3)-AEF-2Nal-THP-Dab(NMeAc)-N-3Pya-Sar-CONH2 [compound 174]” the same measures were 158.02 Å^2 and 0.0036 µM.
In turn, “C12gEPEG2PEG2CO-hk(Me)3-Pen(3)-N(N(Me)2)-T-7MeW-K(NMeAc)-Pen(3)-TMAPF-2Nal-K(PEG2PEG2gEC12)-N-3Pya-Sar-CON(Me)2 [compound 377]” registered an EPSA in series [1] of 148.25 Å^2. Further, the IC50 at IL-23R (setting [2]) is 0.097 µM.
The molecule “cPEG3aCO-Pen(3)-N(N(Me)2)-t-7MeW-Dab(NMeAc)-Pen(3)-AEF-2Nal-THP-E-N-3Pya-Sar-CON(Me)2 [compound 176]” returned an EPSA in series [1] of 168.08 Å^2. The IC50 at IL-23R (setting [2]) was 0.0039 µM.
On the same counts, the results for “cPEG3aCO-Pen(3)-N(N(Me)2)-t-7MeW-Dab(NMeAc)-Pen(3)-AEF-2Nal-THP-Dab(NMeAc)-N-3Pya-Sar-CON(Me)2 [compound 160]” are 151.21 Å^2 and 0.0024 µM.
For “cPEG3aCO-Pen(3)-n-T-7MeW-K(NMeAc)-Pen(3)-TMAPF-2Nal-THP-K(NMeAc)-N-3Pya-Sar-CONH2 [compound 188]” the same measures were 146.8 Å^2 and 0.0023 µM.
For `CC(=O)NCCCC[C@@H]1NC(=O)[C@H](Cc2c[nH]c3c(C)cccc23)NC(=O)[C@H]([C@@H](C)O)NC(=O)[C@H](CC(N)=O)NC(=O)[C@@H](NC(=O)[C@@H](CCCNC(=N)N)NC(C)=O)C(C)(C)SSC(C)(C)[C@@H](C(=O)N[C@@H](Cc2ccc(OCCCCC[N+](C)(C)C)cc2)C(=O)N[C@@H](Cc2ccc3ccccc3c2)C(=O)NC2(C(=O)N[C@@H](CCC(=O)O)C(=O)N[C@@H](CC(N)=O)C(=O)N[C@@H](Cc3cccnc3)C(=O)N(C)CC(N)=O)CCOCC2)NC1=O` [compound 462, MeCO-r-Pen(3)-N-T-7MeW-K(Ac)-Pen(3)-TMAPF-2Nal-THP-E-N-3Pya-Sar-CONH2], the IC50 on IL-23R (read-out: IL23R Reporter Assay) was determined as 0.0013 µM.
Consider “C12gEPEG2PEG2CO-hk(Me)3-Pen(3)-N(N(Me)2)-T-7MeW-K(NMeAc)-Pen(3)-TMAPF-2Nal-THP-K(NMeAc)-N-3Pya-Sar-CON(Me)2 [compound 322]”, for which, at IL-23R (setting [2]), the IC50 was found to be 0.0048 µM.
As for `CC(=O)NCCCC[C@@H]1NC(=O)[C@H](Cc2c[nH]c3c(C)cccc23)NC(=O)[C@H]([C@@H](C)O)NC(=O)[C@H](CC(N)=O)NC(=O)[C@@H](NC(=O)CCCCC[N+](C)(C)C)C(C)(C)SSC(C)(C)[C@@H](C(=O)N[C@@H](Cc2ccc(OCCN)cc2)C(=O)N[C@@H](Cc2ccc3ccccc3c2)C(=O)NC2(C(=O)N[C@@H](CCCCNC(C)=O)C(=O)N[C@@H](CC(N)=O)C(=O)N[C@@H](Cc3cccnc3)C(=O)N(C)CC(N)=O)CCOCC2)NC1=O` [compound 89], the IC50 at IL-23R (read-out: IL23R Reporter Assay) was 0.0027 µM.
As for `CC(=O)NCCCC[C@@H]1NC(=O)[C@H](Cc2c[nH]c3ccccc23)NC(=O)[C@H]([C@@H](C)O)NC(=O)[C@H](CC(N)=O)NC(=O)[C@@H](NC(=O)[C@@H](CCCC[N+](C)(C)C)NC(C)=O)CCSC[C@@](C)(C(=O)N[C@@H](Cc2ccc(OCCN)cc2)C(=O)N[C@@H](Cc2ccc3ccccc3c2)C(=O)NC2(C(=O)N[C@@H](CCCCNC(C)=O)C(=O)N[C@@H](CC(N)=O)C(=O)N[C@@H](Cc3cccnc3)C(=O)N(C)CC(N)=O)CCOCC2)NC1=O` [compound 569, MeCO-k(Me)3-Abu(1)-N-T-W-K(Ac)-aMeC(1)-AEF-2Nal-THP-K(Ac)-N-3Pya-Sar-CONH2], the IC50 on IL-23R (read-out: IL23R Reporter Assay) was 0.0013 µM.
In the case of `CC(=O)NCCCC[C@@H]1NC(=O)[C@H](Cc2c[nH]c3c(C)cccc23)NC(=O)[C@H]([C@@H](C)O)NC(=O)[C@H](CC(N)=O)NC(=O)[C@@H](NC(=O)C(F)(F)F)C(C)(C)SSC(C)(C)[C@@H](C(=O)N[C@@H](Cc2ccc(OCCN)cc2)C(=O)N[C@@H](Cc2ccc3ccccc3c2)C(=O)NC2(C(=O)N[C@@H](CCCCNC(C)=O)C(=O)N[C@@H](CC(N)=O)C(=O)N[C@@H](Cc3cccnc3)C(=O)N(C)CC(N)=O)CCN(C)CC2)NC1=O` [compound 55], on IL-23R (read-out: IL23R Reporter Assay), the IC50 is 0.0025 µM.
In the case of `CC(=O)NCCCC[C@@H]1NC(=O)[C@H](Cc2c[nH]c3c(C)cccc23)NC(=O)[C@H]([C@@H](C)O)NC(=O)[C@H](CC(N)=O)NC(=O)[C@@H](NC(=O)[C@@H](CCCC[N+](C)(C)C)NC(C)=O)C(C)(C)SSC(C)(C)[C@@H](C(=O)N[C@@H](Cc2ccc(OCCCCC[N+](C)(C)C)cc2)C(=O)N[C@@H](Cc2ccc3ccccc3c2)C(=O)NC2(C(=O)N[C@@H](CCC(=O)O)C(=O)N[C@@H](CC(N)=O)C(=O)N[C@@H](Cc3cccnc3)C(=O)N(C)CC(N)=O)CCOCC2)NC1=O` [compound 446, MeCO-k(Me)3-Pen(3)-N-T-7MeW-K(Ac)-Pen(3)-TMAPF-2Nal-THP-E-N-3Pya-Sar-CONH2], the IC50 on IL-23R (read-out: IL23R Reporter Assay) stood at 0.0024 µM.
Same read-out and setting: with `CC(=O)N(C)CCCC[C@@H]1NC(=O)[C@H](Cc2c[nH]c3c(C)cccc23)NC(=O)[C@H]([C@@H](C)O)NC(=O)[C@H](CC(=O)N(C)C)NC(=O)[C@@H](NC(=O)CCOCCOCC[N+](C)(C)C)C(C)(C)SSC(C)(C)[C@@H](C(=O)N[C@@H](Cc2ccc(-n3cc(CCCC[N+](C)(C)C)nn3)cc2)C(=O)N[C@@H](Cc2ccc3ccccc3c2)C(=O)NC2(C(=O)N[C@@H](CCCCN(C)C(C)=O)C(=O)N[C@@H](CC(N)=O)C(=O)N[C@@H](Cc3cccnc3)C(=O)N(C)CC(=O)N(C)C)CCOCC2)NC1=O` [compound 302, cPEG3aCO-Pen(3)-N(N(Me)2)-T-7MeW-K(NMeAc)-Pen(3)-F(4TzlTMA4)-] the figure was 0.0013 µM.

(Values after patent US20260022143A1, “Cyclic Peptide Inhibitors of IL-23” (JANSSEN PHARMACEUTICA NV, priority 2022, published 2026).)
